Laboratory results as given in publication PMC5372361 (Scientific Reports, 2017).

Sequences of proteins named here, by UniProt entry; tags and fusion partners are left off. Residues count along the entry.
UniProt P81908, whole entry: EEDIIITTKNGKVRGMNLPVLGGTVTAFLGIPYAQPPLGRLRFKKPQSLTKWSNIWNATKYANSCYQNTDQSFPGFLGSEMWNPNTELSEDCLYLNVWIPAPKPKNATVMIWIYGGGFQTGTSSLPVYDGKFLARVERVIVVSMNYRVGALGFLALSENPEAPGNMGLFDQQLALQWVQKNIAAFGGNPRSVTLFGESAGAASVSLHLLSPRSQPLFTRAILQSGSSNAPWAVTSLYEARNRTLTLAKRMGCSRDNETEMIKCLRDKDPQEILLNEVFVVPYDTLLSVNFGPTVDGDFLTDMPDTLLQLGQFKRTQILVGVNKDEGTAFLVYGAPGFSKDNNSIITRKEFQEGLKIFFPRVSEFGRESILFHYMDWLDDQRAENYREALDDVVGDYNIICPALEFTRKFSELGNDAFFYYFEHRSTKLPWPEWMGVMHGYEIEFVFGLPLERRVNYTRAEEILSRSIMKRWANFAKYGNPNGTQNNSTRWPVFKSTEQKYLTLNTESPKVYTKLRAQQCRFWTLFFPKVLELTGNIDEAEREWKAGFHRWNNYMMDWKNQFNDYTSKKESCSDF
UniProt P02550, whole entry: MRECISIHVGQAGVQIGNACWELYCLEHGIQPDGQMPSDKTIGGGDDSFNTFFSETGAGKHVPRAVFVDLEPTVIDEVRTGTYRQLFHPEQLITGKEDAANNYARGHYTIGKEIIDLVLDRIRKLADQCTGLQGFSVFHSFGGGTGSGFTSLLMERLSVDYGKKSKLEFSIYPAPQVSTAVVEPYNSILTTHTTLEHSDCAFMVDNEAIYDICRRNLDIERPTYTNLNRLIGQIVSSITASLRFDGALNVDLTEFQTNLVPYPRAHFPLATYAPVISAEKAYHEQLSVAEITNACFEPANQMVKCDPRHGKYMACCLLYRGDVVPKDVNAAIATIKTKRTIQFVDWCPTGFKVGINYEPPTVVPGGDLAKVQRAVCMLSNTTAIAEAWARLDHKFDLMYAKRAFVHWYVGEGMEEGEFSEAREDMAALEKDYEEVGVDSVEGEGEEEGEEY
UniProt P02554, whole entry: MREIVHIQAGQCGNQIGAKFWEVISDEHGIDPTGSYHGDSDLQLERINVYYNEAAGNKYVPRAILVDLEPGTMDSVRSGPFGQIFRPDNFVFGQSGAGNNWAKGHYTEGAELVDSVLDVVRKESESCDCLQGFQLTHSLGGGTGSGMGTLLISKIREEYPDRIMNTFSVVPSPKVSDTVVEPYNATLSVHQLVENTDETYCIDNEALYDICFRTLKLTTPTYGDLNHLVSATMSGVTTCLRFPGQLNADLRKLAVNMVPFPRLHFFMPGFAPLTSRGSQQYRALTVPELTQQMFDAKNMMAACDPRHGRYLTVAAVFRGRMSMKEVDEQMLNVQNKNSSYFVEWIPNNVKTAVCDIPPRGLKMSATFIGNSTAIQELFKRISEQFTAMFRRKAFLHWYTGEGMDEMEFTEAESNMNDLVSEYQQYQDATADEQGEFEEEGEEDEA
UniProt Q29550, 19-566 limits assumed: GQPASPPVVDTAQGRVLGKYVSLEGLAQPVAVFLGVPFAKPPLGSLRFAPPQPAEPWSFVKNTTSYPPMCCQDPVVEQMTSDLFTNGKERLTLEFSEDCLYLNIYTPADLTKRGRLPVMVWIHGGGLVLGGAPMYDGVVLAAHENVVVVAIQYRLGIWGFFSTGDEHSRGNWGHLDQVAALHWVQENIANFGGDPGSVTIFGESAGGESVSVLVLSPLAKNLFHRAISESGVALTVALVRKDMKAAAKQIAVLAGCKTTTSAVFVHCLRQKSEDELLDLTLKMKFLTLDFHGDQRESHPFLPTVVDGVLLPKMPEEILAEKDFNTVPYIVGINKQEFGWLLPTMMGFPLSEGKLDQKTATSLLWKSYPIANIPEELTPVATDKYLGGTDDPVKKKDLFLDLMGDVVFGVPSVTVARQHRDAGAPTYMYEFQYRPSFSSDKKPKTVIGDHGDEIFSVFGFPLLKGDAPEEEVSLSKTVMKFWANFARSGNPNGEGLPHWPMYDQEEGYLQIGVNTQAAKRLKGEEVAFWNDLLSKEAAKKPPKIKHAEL
UniProt P22303, 32-617 isoform 2 limits assumed: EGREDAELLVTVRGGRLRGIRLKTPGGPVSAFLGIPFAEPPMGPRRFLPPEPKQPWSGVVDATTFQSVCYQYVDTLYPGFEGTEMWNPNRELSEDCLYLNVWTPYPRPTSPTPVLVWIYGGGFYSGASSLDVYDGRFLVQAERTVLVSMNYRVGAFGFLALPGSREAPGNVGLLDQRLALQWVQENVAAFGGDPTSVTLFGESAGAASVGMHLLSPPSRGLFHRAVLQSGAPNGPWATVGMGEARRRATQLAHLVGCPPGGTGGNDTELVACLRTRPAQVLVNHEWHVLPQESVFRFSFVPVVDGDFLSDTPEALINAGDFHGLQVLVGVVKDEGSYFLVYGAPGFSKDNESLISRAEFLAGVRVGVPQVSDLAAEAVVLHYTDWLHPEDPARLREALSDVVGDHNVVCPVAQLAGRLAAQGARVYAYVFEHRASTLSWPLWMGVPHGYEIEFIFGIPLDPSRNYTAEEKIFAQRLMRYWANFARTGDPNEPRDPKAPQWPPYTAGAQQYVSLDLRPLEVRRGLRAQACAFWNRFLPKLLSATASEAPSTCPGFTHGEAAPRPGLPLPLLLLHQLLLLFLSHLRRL
UniProt Q00960, 27-1482 limits assumed: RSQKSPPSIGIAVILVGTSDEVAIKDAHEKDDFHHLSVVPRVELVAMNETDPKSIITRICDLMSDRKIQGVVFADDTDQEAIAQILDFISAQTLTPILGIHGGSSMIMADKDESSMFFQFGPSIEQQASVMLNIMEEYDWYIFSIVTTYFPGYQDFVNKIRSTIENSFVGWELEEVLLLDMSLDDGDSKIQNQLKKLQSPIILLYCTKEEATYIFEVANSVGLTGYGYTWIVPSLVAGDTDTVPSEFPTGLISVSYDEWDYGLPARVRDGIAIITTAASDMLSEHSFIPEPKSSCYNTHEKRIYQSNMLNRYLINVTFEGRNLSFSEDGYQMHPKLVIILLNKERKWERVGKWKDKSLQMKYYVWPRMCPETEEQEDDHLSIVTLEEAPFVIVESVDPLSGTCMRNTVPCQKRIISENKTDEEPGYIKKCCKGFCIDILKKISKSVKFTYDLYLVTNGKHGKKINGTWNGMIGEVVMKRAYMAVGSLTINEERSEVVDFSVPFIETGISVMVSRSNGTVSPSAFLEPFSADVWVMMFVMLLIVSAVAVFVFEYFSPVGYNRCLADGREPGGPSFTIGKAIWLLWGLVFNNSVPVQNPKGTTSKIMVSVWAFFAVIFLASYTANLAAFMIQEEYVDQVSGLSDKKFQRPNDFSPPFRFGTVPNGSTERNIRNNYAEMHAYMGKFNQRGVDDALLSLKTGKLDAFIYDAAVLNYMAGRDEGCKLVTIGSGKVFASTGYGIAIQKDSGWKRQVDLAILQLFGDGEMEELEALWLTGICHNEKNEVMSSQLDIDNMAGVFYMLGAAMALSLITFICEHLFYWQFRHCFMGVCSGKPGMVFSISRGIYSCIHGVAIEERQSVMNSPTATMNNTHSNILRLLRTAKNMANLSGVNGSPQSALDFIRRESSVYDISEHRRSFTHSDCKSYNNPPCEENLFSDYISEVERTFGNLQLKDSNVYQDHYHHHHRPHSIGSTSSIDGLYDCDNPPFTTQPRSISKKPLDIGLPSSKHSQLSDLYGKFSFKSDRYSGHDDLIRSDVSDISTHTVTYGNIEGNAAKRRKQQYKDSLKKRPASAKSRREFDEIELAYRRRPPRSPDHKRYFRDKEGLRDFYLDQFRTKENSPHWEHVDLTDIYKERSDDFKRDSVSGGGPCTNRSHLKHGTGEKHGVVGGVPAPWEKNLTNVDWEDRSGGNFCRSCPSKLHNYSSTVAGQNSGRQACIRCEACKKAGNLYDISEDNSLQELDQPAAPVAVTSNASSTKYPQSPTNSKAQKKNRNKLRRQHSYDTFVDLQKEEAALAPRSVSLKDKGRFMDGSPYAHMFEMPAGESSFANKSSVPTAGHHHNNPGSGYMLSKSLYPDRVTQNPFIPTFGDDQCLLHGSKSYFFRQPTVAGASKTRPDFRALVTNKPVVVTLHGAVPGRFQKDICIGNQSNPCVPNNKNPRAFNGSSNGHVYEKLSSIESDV

Key:
equine serum BChE = equine serum BChE (Equus caballus, UniProt P81908); details: read-out: IC50 ± SEM, BChE, pH 7.5, 25 °C, 10 min pre-incubation
tubulin = tubulin (Sus scrofa, UniProt P02550+P02554); test: Tubulin polymerization to microtubules (absorbance at 355 nm); format: biochemical; details: at 100 μM of compound; 100% = vehicle control (10% DMSO)
porcine liver CaE = porcine liver CaE (Sus scrofa, UniProt Q29550); test: In vitro CaE inhibition (4-nitrophenyl acetate hydrolysis); details: for inhibition % at 20 μM, CaE: 20 μM of compound; for IC50: read-out: IC50 ± SEM, CaE, porcine liver CaE, pH 8.0, 25 °C
human erythrocyte AChE = human erythrocyte AChE (Homo sapiens, UniProt P22303); details: for inhibition % at 20 μM, AChE: 20 μM of compound; for IC50: read-out: IC50 ± SEM, AChE, human erythrocyte AChE, pH 7.5, 25 °C, 10 min pre-incubation
[1] = molecular target: ifenprodil binding site of NMDA receptors containing NR2B subunits (Rattus norvegicus, UniProt P35439+Q00960); test: Radioligand binding, competition with [3H]ifenprodil; details: rat hippocampal membranes; for IC50: read-out: [3H]ifenprodil, IC50
[2] = molecular target: MK-801 binding (intrachannel) site of NMDA receptor (Rattus norvegicus, UniProt P35439); test: Radioligand binding, competition with [3H]MK-801; details: rat hippocampal membranes; for IC50: read-out: [3H]МК-801, IC50
isolated mitochondria = details: cited from earlier work
[3] = system: SH-SY5Y neuroblastoma cells; test: Ionomycin-induced toxicity in SH-SY5Y neuroblastoma cells (MTT test); details: 24 h; for cell survival under ionomycin: 1 μM of compound, 3 μM ionomycin, MTT; for effect on cell survival (MTT test) in the absence of ionomycin: studied concentrations (0.1 and 1 μM)
BChE = BChE (Equus caballus, UniProt P81908)

Compound	IC50 (equine serum BChE)	(dA355/dt)max, % of control (tubulin)	inhibition % at 20 μM, CaE (porcine liver CaE)	IC50 (porcine liver CaE)	inhibition % at 20 μM, AChE (human erythrocyte AChE)	IC50 (human erythrocyte AChE)	% of [3H]ifenprodil blockade at 100 μM of compound [1]	IC50 [1]	% of [3H]МК-801 blockade at 100 μM of compound [2]	IC50 [2]	effect on calcium-induced swelling of isolated mitochondria (isolated mitochondria)	cell survival under ionomycin [3]	effect on cell survival (MTT test) in the absence of ionomycin [3]	Ki (BChE)
Cc1ccc2c(c1)c1c(n2CC(O)CNC23CC4CC(C)(CC(C)(C4)C2)C3)CCC(C)C1 (stereo not drawn)	8.24 µM	133 ± 14%	10.3%	> 20 µM	7.3%	> 20 µM	71.4 ± 6.5%	10.3 µM	65.2 ± 5.3%	19.5 µM				
OC(CNC12CC3CC(CC(C3)C1)C2)Cn1c2ccccc2c2ccccc21 (stereo not drawn)	15.9 µM		9.3%	> 20 µM	2.8%	> 20 µM	74.2 ± 6.8%	8.2 µM	83.5 ± 7.6%	75.3 µM				
OC(CNC12CC3CC(CC(C3)C1)C2)Cn1c2ccc(Br)cc2c2cc(Br)ccc21 (stereo not drawn)	20.7 µM	124 ± 17%	25.3%	> 20 µM	5.5%	> 20 µM	85.3 ± 7.6%	22.9 µM	55.1 ± 4.9%	79.4 µM				
CC12CC3CC(C)(C1)CC(NCC(O)Cn1c4ccc(Cl)cc4c4cc(Cl)ccc41)(C3)C2 (stereo not drawn)	40.7 µM	101 ± 15%			4.0%	> 20 µM	71.4 ± 5.7%	14.6 µM	72.8 ± 6.8%	22.4 µM				
Cc1ccc2c(c1)c1c(n2CC(O)CNC23CC4CC(CC(C4)C2)C3)CCC(C)C1 (stereo not drawn)	9.17 µM	158 ± 19%	20.0%	> 20 µM	7.1%	> 20 µM	67.2 ± 7.3%	8.1 µM	29.3 ± 6.4%	> 100 µM				
Cc1ccc2c(c1)c1c(n2CC(O)CNC23CC4CC(C)(CC(C)(C4)C2)C3)CCCC1 (stereo not drawn)	33 µM	182 ± 16%	12.3%	> 20 µM	2.2%	> 20 µM	31.4 ± 3.1%	> 100 µM	18.3 ± 2.0%	> 100 µM				
OC(CNC12CC3CC(CC(C3)C1)C2)Cn1c2c(c3cc(F)ccc31)CCCC2 (stereo not drawn)	8.66 µM	164 ± 18%	15.4%	> 20 µM	4.9%	> 20 µM	48.4 ± 5.2%	> 100 µM	0 ± 2.0%	> 100 µM	diminish, in the dose-dependent manner	89 ± 4%	did not affect the MTT test parameters	4.62 µM
CC12CC3CC(C)(C1)CC(NCC(O)Cn1c4c(c5ccccc51)CCCC4)(C3)C2 (stereo not drawn)	6.13 µM	127 ± 10%	10.1%	> 20 µM	5.1%	> 20 µM	58.4 ± 5.6%	65.5 µM	62.2 ± 6.3%	14.2 µM				
Cc1ccc2c(c1)c1c(n2CC(O)CNC23CC4CC(CC(C4)C2)C3)CCCC1 (stereo not drawn)	20 µM	152 ± 12%	15.1%	> 20 µM	3.9%	> 20 µM	51.6 ± 7.2%	98.4 µM	0 ± 2.0%	> 100 µM				
OC(CNC12CC3CC(CC(C3)C1)C2)Cn1c2c(c3ccccc31)CCCC2 (stereo not drawn)	7.29 µM	155 ± 22%	17.9%	> 20 µM	4.6%	> 20 µM	71.6 ± 8.3%	82.5 µM	32.3 ± 3.0%	> 100 µM				
CC12CC3CC(C)(C1)CC(NCC(O)Cn1c4c(c5cc(F)ccc51)CCCC4)(C3)C2 (stereo not drawn)	5.43 µM		16.5%	> 20 µM	8.8%	> 20 µM	87.2 ± 7.3%	10.4 µM	88.5 ± 9.0%	27.4 µM		84 ± 4%	did not affect the MTT test parameters	
OC(CNC12CC3CC(CC(C3)C1)C2)Cn1c2ccc(Cl)cc2c2cc(Cl)ccc21 (stereo not drawn)	23.7 µM	100 ± 8%		50.1 µM	13.1%	> 20 µM	70.6 ± 7.1%	21.8 µM	28.3 ± 1.8%	> 100 µM				
CC12CC3CC(C)(C1)CC(NCC(O)Cn1c4ccc(Br)cc4c4cc(Br)ccc41)(C3)C2 (stereo not drawn)	55.4 µM	104 ± 24%			6.1%	> 20 µM	67.6 ± 5.8%	31.5 µM	33.8 ± 3.5%	> 100 µM				
CC12CC3CC(C)(C1)CC(NCC(O)Cn1c4ccccc4c4ccccc41)(C3)C2 (stereo not drawn)	7.6 µM	249 ± 16%	10.5%	> 20 µM			76.2 ± 6.6%	21.3 µM	68.5 ± 5.4%	59.1 µM				2.11 µM
